{"source": "patent US7393448B2", "about": "“Method of binding a compound to a sensor surface” (Applied NanoSystems B.V., priority 2002, dated 2008)"}
{"substance": "glucose oxidase", "values": [{"measurement": "enzyme activity upon immobilization on the hydrophobin layer", "setting": "GCE, phosphate buffer pH 7 (25 mM), glucose added", "value": "remained active"}, {"measurement": "period over which the electrode maintained its activity", "setting": "stored in sealed container, not in liquid, at 4° C., frequently tested", "value": "≥ 67", "unit": "days"}]}
